Earlier results on one substance are cited in PMC9118553, “In Vivo Bioconcentration of 10 Anionic Surfactants in Rainbow Trout Explained by In Vitro Data on Partitioning and S9 Clearance” (Environmental Science & Technology, 2022).

The conditions of data set [1]: ref REACH dossier; cited from earlier work.
Details of data set [2]: method as in REACH dossier. The following applies: method as noted in the cell (shake flask, solubility ratio, HPLC, BCFBAF, pH); ref REACH dossier; cited from earlier work.

In the case of “4-((2-hydroxyethyl)amino)-3-pentaproenyl-4-oxobutanoate - sodium/triethanolamine”, in data set [1], the “Degradation information ~28d-sludge test (% degradable)” value is recorded as 53%. Besides, the LogKow in data set [2] is on record as 1.1.
